The target in this experiment is Sigma 1 (Cavia porcellus, UniProt Q60492). The experiment can be described thus: Sigma-1 receptor tissue bioassay, guinea pig vas deferens, agonist activity (twitch contraction). Conditions: field-stimulated guinea pig vas deferens, compound alone.

By UniProt entry, the sequences of proteins in these tests, tags left out.
UniProt Q60492, whole entry: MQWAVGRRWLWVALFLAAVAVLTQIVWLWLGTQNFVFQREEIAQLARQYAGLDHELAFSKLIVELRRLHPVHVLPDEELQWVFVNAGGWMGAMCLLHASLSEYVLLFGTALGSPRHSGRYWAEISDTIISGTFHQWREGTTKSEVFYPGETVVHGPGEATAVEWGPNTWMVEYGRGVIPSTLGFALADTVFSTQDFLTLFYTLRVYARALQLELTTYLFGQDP

This note sets out measurements from patent publication US20220370381A1 (published 2022).

With (+)SKF-10,047, the “effect on twitch contraction amplitude” value was “concentration-dependent increase”.
